# Data from paper PMC13162264, “Chemoproteomic Elucidation of β‑Lactam Drug Targets in Mycobacterium abscessus” (ACS Infectious Diseases, 2026).
# Legend:
# [1] = system: nine recombinant Mab enzymes (PbpB, DacB2, Ldt4, LpqF, MAB_0330, MAB_2833, MAB_4299c, MAB_4800, MAB_3998); assay: β-lactam competition of ABP labeling, recombinant enzymes; type: binding, Mycobacterium abscessus; conditions: drug 500 μM, 30 min 37 °C, then 10 μM Mero-sCy5 or Bocillin FL
# MAB_4299c = assay: β-lactam competition of ABP labeling, recombinant enzyme; type: binding, Mycobacterium abscessus; conditions: drug 500 μM, 30 min 37 °C, then 10 μM Mero-sCy5 or Bocillin FL
# [2] = system: nine recombinant Mab enzymes (PbpB, DacB2, Ldt4, LpqF, MAB_0330, MAB_2833, MAB_4299c, MAB_4800, MAB_3998); assay: β-lactamase activity, endpoint nitrocefin hydrolysis; type: biochemical, Mycobacterium abscessus; conditions: 8 μM protein, 200 μM nitrocefin, 2 h, 37 °C; p < 0.05 vs buffer
Structure (SMILES),"inhibition of fluorescent ABP binding, all nine proteins [1]",also measured
"NC(=O)[C@@H]1CC[C@@H]2CN1C(=O)N2OS(=O)(=O)O [AVI, avibactam]",mostly had no effect,
"CO[C@@]1(NC(=O)Cc2cccs2)C(=O)N2C(C(=O)O)=C(COC(N)=O)CS[C@@H]21 [FOX, cefoxitin]",,inhibition of fluorescent ABP binding to MAB_4299c (MAB_4299c): did not inhibit
"C[C@@H](O)[C@H]1C(=O)N2C(C(=O)O)=C(SCCN=CN)C[C@H]12 [IPM, imipenem]",inhibited,
O=C(Cc1cccs1)N[C@@H]1C(=O)N2C(C(=O)O)=C(/C=C/c3ccc([N+](=O)[O-])cc3[N+](=O)[O-])CS[C@H]12 [nitrocefin],,"nitrocefin hydrolysis, endpoint [2]: nitrocefin hydrolysis above buffer-only control"
